Assay outcomes deposited in PubChem BioAssay by Broad Institute.
PGC1a acetyl inh – lowers PGC1a acetylation signal in U2OS cells; AlphaScreen anti-acetyl-lysine; with virally co-expressed GCN5 acetyltransferase; inhibition, % at 15.6 µM; 0.17% of 350,000 active; AID 651687;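 active = every replicate shows inhibition of at least 40%; inconclusive = mean inhibition at least 40% but some replicate below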;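 note: 0% = neutral control wells and 100% = positive control wells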
Wnt bcat act – activates Wnt/beta-catenin signaling in a reporter cell assay; 1.2% of 300,000 active; activation, % at 9.35 µM; AID 743398; activator, plate reader; in the data active = activation above about 30%, passing the limit was not always enough; inconclusive = no clear call, values can overlap the other calls;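 note: 0% = neutral control wells and 100% = positive control wells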
miR-122 sensor – blocks miR-122 activity in Huh7 sensor cells; 0.3% of 340,000 active; AID 602342; Huh7 miR-122 Renilla luciferase sensor, 48 h; neutral wells = 0, positive control = 100; activation (reporter increase), % at 12.5 µM;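 active = mean replicate activation score at least 90 and every replicate individually at or above 90; inconclusive = only one of the two criteria met; inactive = neither criterion met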;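 note: higher luciferase means less miR-122 activity so hits act as miR-122 inhibitors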
TRPM1 prom inh – inhibitors of MITF-driven TRPM1 promoter in melanoma cells. 0.83% of 330,000 active. AID 488899. SK-MEL-5 TRPM1 promoter luciferase, 24 h. inhibition, % at 12.5 µM;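 active = mean inhibition across replicates of 60% or more, whatever share of single replicates reaches that level; inconclusive = some that reach 60%, reason not given; inactive = mean inhibition across replicates below 60%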
MITF act – increases MITF-driven TRPM1 promoter luciferase signal; SK-MEL-5 TRPM1-promoter luciferase, 24 h; % of positive control, neutral wells = 0; activation, % at 12.5 µM; 0.75% of 300,000 active;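 active = mean activation of at least 80% with every replicate also reaching 80%; inconclusive = mean reaches 80% but some replicate falls short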;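 note: 0% = neutral control wells and 100% = parthenolide positive control wells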
UUG fidelity – modulators of start codon recognition fidelity in yeast. S. cerevisiae UUG-firefly luciferase reporter, luminescence/redox ratio. activity score, % at 18.7 µM. 0.13% of 350,000 active. AID 602363;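 active = replicate mean at a twofold rise or more, about +100% in these data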;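 also: firefly luciferase made from a UUG start codon reports start codon fidelity; reporter light over untreated wells divided by growth signal over untreated wells; some hits fall short of that in this replicate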
Active calls of the source: *; [ ] = remark or other dose. The list is not random: actives were taken first. Their share in the collection is about 2.1%.

What do the screens show for `O=C(C[C@H]1C[C@H]2c3cc(NC(=O)c4ccc5c(c4)OCO5)ccc3O[C@H]2[C@@H](CO)O1)NCc1cccnc1`?
PGC1a acetyl inh: 3.0; miR-122 sensor: 4.5[16.7 µM]

How did O=C(N[C@@H]1CC[C@H](CCn2cc(-c3ccccc3)nn2)O[C@@H]1CO)c1ccccc1F do in these assays?
PGC1a acetyl inh: -2.9; UUG fidelity: 7.5

Results for O=C(c1cccc(F)c1)N1CCCCN2[C@@H](CO)[C@@H](c3ccc(/C=C/c4ccccc4)cc3)[C@@H]2C1 ?
PGC1a acetyl inh: -30.5; miR-122 sensor: -15.6[16.7 µM]; UUG fidelity: -6.5

How did O=C(C[C@H]1CC[C@H]2[C@@H](COC[C@H](O)CN2Cc2cccc(-c3ccncc3)c2)O1)N1CCOCC1 do in these assays?
PGC1a acetyl inh: 1.9; miR-122 sensor: -2.7[16.7 µM]

How did N#Cc1ccc(NC(=O)c2cccs2)nc1 do in these assays?
PGC1a acetyl inh: 5.0; Wnt bcat act: 6.3; miR-122 sensor: -8.7; TRPM1 prom inh: -83.9; MITF act: 85.7*; UUG fidelity: -15.1

How did O=C(Nc1ccc(NC(=O)c2cccs2)cn1)c1ccccc1 do in these assays?
Wnt bcat act: 44.3*; TRPM1 prom inh: -79.7; MITF act: inconclusive

What do the screens show for `O=C(Nc1cnccn1)c1cccs1`?
PGC1a acetyl inh: 9.3; miR-122 sensor: -0.8; TRPM1 prom inh: 11.5; MITF act: -9.9; UUG fidelity: -22.4

Results for O=C(Nc1ccc(NC(=O)C2CC2)nc1)c1cccs1 ?
PGC1a acetyl inh: 0.2; miR-122 sensor: -7.5; TRPM1 prom inh: -55.4; MITF act: 57.1; UUG fidelity: -11.6

What do the screens show for `CCCCC(=O)Nc1ccc(NC(=O)c2cccs2)cn1`?
PGC1a acetyl inh: 48.8*; miR-122 sensor: 0.5; TRPM1 prom inh: -6.8; MITF act: 9.4

What do the screens show for `CCC(=O)N[C@H]1CC[C@H](CC(=O)NCC2CCCCC2)O[C@H]1CO`?
PGC1a acetyl inh: -1.9; miR-122 sensor: 6.6[16.7 µM]; UUG fidelity: -14.1

Compounds shown so far that have a halogen, in the order listed:
How did O=C(N[C@@H]1CC[C@H](CCn2cc(-c3ccccc3)nn2)O[C@@H]1CO)c1ccccc1F do in these assays?
PGC1a acetyl inh: -2.9; UUG fidelity: 7.5

Results for O=C(c1cccc(F)c1)N1CCCCN2[C@@H](CO)[C@@H](c3ccc(/C=C/c4ccccc4)cc3)[C@@H]2C1 ?
PGC1a acetyl inh: -30.5; miR-122 sensor: -15.6[16.7 µM]; UUG fidelity: -6.5

(listing goes on)
Results for C[C@@H]1CCCCO[C@@H](CN(C)C(=O)Nc2ccc(F)cc2)[C@@H](C)CN([C@H](C)CO)C(=O)c2cc(NC(=O)CCC(F)(F)F)ccc2O1 ?
PGC1a acetyl inh: 6.1; miR-122 sensor: 5.1[16.7 µM]; UUG fidelity: -0.9

What do the screens show for `CCC(=O)N1CCC2(CC1)CN(Cc1ccc3c(c1)OCO3)[C@@H](CO)c1c2c2ccc(OC)cc2n1C`?
PGC1a acetyl inh: -3.5

How did Cn1cccc1C(=O)NCC1COc2ccccc2O1 (stereo unspecified) do in these assays?
Wnt bcat act: inconclusive; miR-122 sensor: -3.4; TRPM1 prom inh: -100.1; MITF act: 88.3*; UUG fidelity: -15.0

What do the screens show for `Cc1c(C(=O)Nc2ccccc2[N+](=O)[O-])csc1-c1ccccc1`?
PGC1a acetyl inh: 10.9; Wnt bcat act: -0.7; miR-122 sensor: -5.6; TRPM1 prom inh: -24.6; MITF act: 30.3; UUG fidelity: -8.4

What do the screens show for `Cc1c(C(=O)Nc2ccccc2)csc1-c1ccccc1`?
PGC1a acetyl inh: 5.3; Wnt bcat act: 59.2*; miR-122 sensor: 1.2; TRPM1 prom inh: -107.2; MITF act: 107.3*; UUG fidelity: -18.2

How did CCCC12CN3CCN(CC(C3)/C1=N\NC(=O)c1ccccc1N)C2 do in these assays?
PGC1a acetyl inh: -2.0; Wnt bcat act: 37.3*; miR-122 sensor: -6.4; TRPM1 prom inh: 7.3; MITF act: -3.7; UUG fidelity: 9.8

Results for COc1cccc(C(=O)Nc2ccc3c(c2)C(=O)N(C)C[C@@H](OC)[C@@H](C)CN(C(=O)C2CCCC2)[C@@H](C)CO3)c1 ?
miR-122 sensor: 0.5[16.7 µM]; UUG fidelity: 8.5

Results for O=C(/C=C/c1cccc(C(F)(F)F)c1)Nc1cccc(C(F)(F)F)c1 ?
PGC1a acetyl inh: -5.7; miR-122 sensor: -9.5; TRPM1 prom inh: 22.9; MITF act: -18.2; UUG fidelity: 4.2

How did O=C1C=CCCN1C(=O)/C=C/c1cccc(C(F)(F)F)c1 do in these assays?
PGC1a acetyl inh: 78.4*

How did O=C(/C=C/c1ccccc1Cl)N1CCN(c2ncccn2)CC1 do in these assays?
PGC1a acetyl inh: 1.5; Wnt bcat act: -3.0; TRPM1 prom inh: -11.1; MITF act: 9.0

How did COc1cc(/C=C/C(=O)N2CCCN(C(=O)/C=C/c3cc(OC)c(OC)c(OC)c3)CC2)cc(OC)c1OC do in these assays?
PGC1a acetyl inh: 6.7; Wnt bcat act: -1.0; miR-122 sensor: 2.5; TRPM1 prom inh: 10.5; MITF act: -7.2
